Experimental data reported in patent publication US20200246284A1 (Academia Sinica, priority 2015, published 2020).

System: Caco-2 cell monolayers
Test: Caco-2 permeability
Assay type: in vitro ADME, human
Details: high and low standard
From the text: The Caco-2 permeability assay is considered to be the industry gold standard for in vitro prediction of in vivo human intestinal permeability and bioavailability of orally administered drugs. The Caco-2 permeability assay uses an established method for predicting the absorption of therapeutic compounds across the GIT by measuring the rate of transport across a contiguous Caco-2 cell monolayer. […] The Caco-2 assay measures the passage of a test compound from a donor chamber into an acceptor chamber through a porous membrane on which a confluent Caco-2 monolayer forms a cellular barrier.

COC(=O)c1ccccc1-c1c2ccc(=N)cc-2oc2cc(N)ccc12.Cl [Rodamin 123]
Papp (A to B), standards: Low standard = 0.88 × 10−6 cm/sec
